# Source: PubChem
# Shown are actives, neighbours in structure and some others; about 1.8% of the full set was active somewhere.
# Cneo AK release = Cryptococcus neoformans lysis via adenylate kinase release | C. neoformans lysis, adenylate kinase release luminescence, 4 h; normalised: neutral wells 0, clomiphene wells 100 | lysis activity, % at 15 µM | actives 0.2% (n = 360,000);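 active means mean lysis activity across replicates of at least 80%, whatever share of replicates individually reach that level; inactive means mean lysis activity below 80%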
#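 Material: C. neoformans cells | Amount: Yeast cell density of 5 × 10^6 cells/mL | Medium: Fresh YPD growth medium | Dosing: Single dose | Times: Static 4 h at 37 °C with compound, 1 h detection | Detection: AK luminescence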
# Yeast UUG start = yeast start codon fidelity modulation | S. cerevisiae UUG-firefly luciferase reporter, luminescence/redox ratio | activity score, % at 18.7 µM | hit rate 0.13% among 350,000 | AID 602363;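 active means replicate mean at a twofold rise or more, about +100% in these data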;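 further: firefly luciferase made from a UUG start codon reports start codon fidelity; reporter light over untreated wells divided by growth signal over untreated wells; some hits fall short of that in this replicate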
# E-sel inducer = induces E-selectin expression in human endothelial cells; P16581; HUVEC E-selectin immunofluorescence imaging; normalized: neutral wells 0, TNF-alpha wells 100; activation, % at 7.58 µM; actives 0.37% (n = 260,000);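 active means mean E-selectin-positive cell signal at least 10% of the positive control, reached in at least 60% of replicates, without over 20% cell loss; inconclusive means no rule given, readout overlaps actives, possibly toxicity-flagged; inactive means the rest, including those meeting only one limit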
#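 Read-out basis: % PE-positive cells; Test system: HUVEC primary endothelial cells; Technique: immunofluorescence imaging; Dosing: single-point compound dose.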
# DENV2 CPE = inhibitors of DENV2 cytopathic effect; AID 651640; actives 1.7% (n = 350,000); DENV2-infected cells, cytopathic effect rescue, plate reader; CPE inhibition, % at 9.99 µM; in the data active means CPE inhibition above about 20%, passing the limit was not always enough; inconclusive means no clear call, values can overlap the other calls; tested in BHK-21 cells;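 further: 0% = median of neutral control wells and 100% = median of positive control wells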
# Numbers without * were called inactive; ? = inconclusive; nt = no result given; ! = not confirmed by another sample.
no.	smiles	Cneo AK release	Yeast UUG start
1	COc1ccccc1CN1CCCC(N2CCN(c3ccccc3OC)CC2)C1 (centres undefined)	0	1
2	Cc1noc(C)c1NC(=O)Nc1ccc2c(c1)C(=O)N([C@@H](C)CO)C[C@H](C)[C@H](CN(C)Cc1ccc(Cl)c(Cl)c1)O2	2	-7
3	Cc1noc(C)c1NC(=O)N(C)C[C@H]1Oc2c(NS(C)(=O)=O)cccc2C(=O)N([C@@H](C)CO)C[C@H]1C	5	-14
4	C[C@H]1CN([C@@H](C)CO)C(=O)c2cc(C3=CCCC3)cnc2O[C@@H]1CN(C)C(=O)Cc1ccncc1	-3	-2
5	C[C@@H]1CN([C@@H](C)CO)S(=O)(=O)c2ccc(-c3ccc(C#N)cc3)cc2O[C@@H]1CN(C)C(=O)CN(C)C	17	-1
6	COc1ccccc1N1CCN(C2CCCN(C(=O)c3cccc(-c4ccco4)c3)C2)CC1 (centres undefined)	-3	-1
7	C[C@H](CO)N1C[C@H](C)[C@@H](CN(C)Cc2ccccn2)Oc2ncc(Br)cc2C1=O	0	-21
8	C[C@H](CO)N1C[C@H](C)[C@H](CN(C)Cc2ccncc2)Oc2ncc(Br)cc2C1=O	0	-23
9	C[C@H]1CN([C@@H](C)CO)C(=O)c2cc(Br)cnc2O[C@@H]1CN(C)Cc1ccccn1	107*	-15
10	C[C@@H]1CN([C@@H](C)CO)C(=O)c2cc(C#Cc3ccccn3)cnc2O[C@@H]1CN(C)Cc1ccccc1	nt	-7

no.	E-sel inducer	DENV2 CPE
1	nt	29*
2	-5	6
3	0	-3
4	2	-3
5	0	11
6	-2	44*
7	-1	11
8	-1	85*!
9	0	-2
10	0	nt

# New compounds follow
no.	smiles	Cneo AK release	Yeast UUG start
11	C(=C\c1ccc(C2[C@@H]3CN(Cc4cocn4)C[C@H]2N3)cc1)/c1ccccc1 (some centres undefined)	nt	nt
12	C[C@@H]1CN([C@H](C)CO)C(=O)c2cc(NS(=O)(=O)c3ccccc3)ccc2O[C@H]1CN(C)C(=O)Nc1cccc2ccccc12	-6	0
13	COc1ccc(S(=O)(=O)N2CCC3CC2c2cc(-c4ccc5c(c4)OCO5)ccc23)cc1 (centres undefined)	0	-10
14	N/C(=N\OC(=O)Nc1ccccc1)c1cccc(C(F)(F)F)c1	-1	-14
15	Cc1cc(/C(N)=N/OC(=O)Nc2cccc(C(F)(F)F)c2)no1	-5	-4
16	C[C@@H]1CN([C@@H](C)CO)S(=O)(=O)c2ccc(-c3ccncc3)cc2O[C@H]1CN(C)Cc1cccnc1	-1	-9
17	CN[C@H]1C[C@H]2c3[nH]c4ccccc4c3CCN2C(=O)[C@H]1[C@H](C)O	-4	-21
18	Cc1ccc(S(=O)(=O)N[C@H]2C=C[C@@H](CC(=O)N3CCC(Cc4ccccc4)CC3)O[C@H]2CO)cc1	85*	26
19	COc1ccc(S(=O)(=O)N[C@H]2C=C[C@H](CC(=O)N3CCC(Cc4ccccc4)CC3)O[C@@H]2CO)cc1	89*	8
20	Cc1cc(NCc2ccccn2)n2nc(C)c(-c3ccc(Cl)cc3)c2n1	-2	-36

no.	E-sel inducer	DENV2 CPE
11	0	30*!
12	0	0
13	0	89*
14	nt	-2
15	67*	0
16	0	-3
17	0	24*
18	-3	-17
19	1	?
20	47*	-12

# (cont.)
no.	smiles	Cneo AK release	Yeast UUG start
21	Cc1cc(NCc2ccccn2)n2ncc(-c3ccc(Cl)cc3)c2n1	-1	-34
22	C[C@H]1CCCCO[C@H](CN(C)Cc2ccncc2)[C@@H](C)CN([C@@H](C)CO)C(=O)c2cc(NC(=O)Nc3ccc(F)cc3)ccc2O1	5	-5
23	COc1ccc(NC(=O)CC2C(=O)N(c3ccccc3)C(=O)N2CCc2cccs2)cc1 (centres undefined)	1	-1
24	CCOc1ccc(NC(=O)CC2C(=O)N(c3ccc(OC)cc3)C(=O)N2CCc2cccs2)cc1 (centres undefined)	nt	nt
25	CC(=O)c1cccc(NC(=O)c2noc3c2CCc2ccccc2-3)c1	-5	-23
26	COc1cccc(C(=O)Nc2ccc3c(c2)OC[C@@H](C)NC[C@@H](C)[C@H](OC)CN(C)C3=O)c1	2	15
27	CO[C@@H]1CN(C)C(=O)c2ccc(NC(=O)c3cccc(F)c3)cc2OC[C@@H](C)NC[C@H]1C	-4	-5
28	COc1cccc(C(=O)Nc2ccc3c(c2)OC[C@@H](C)NC[C@@H](C)[C@@H](OC)CN(C)C3=O)c1	-1	-6
29	CN1c2ccc(-c3ccc(C#N)cc3)cc2[C@H]2[C@H](CCN2S(=O)(=O)c2ccc(F)cc2)[C@@H]1CO	46	-2
30	Cc1nc2cc(NC(=O)c3ccc([N+](=O)[O-])s3)ccc2s1	-10	-9

no.	E-sel inducer	DENV2 CPE
21	0	-1
22	0	-6
23	nt	-8
24	nt	96*
25	nt	22*
26	0	22*
27	0	31*
28	0	0
29	0	-8
30	0	73*

# (continued)
no.	smiles	Cneo AK release	Yeast UUG start
31	Cc1nc2ccc(NC(=O)c3ccccc3)cc2s1	nt	nt
32	CCNc1ccc(C(=O)Nc2ccc3nc(C)sc3c2)cc1[N+](=O)[O-]	1	-5
33	Cn1cnc(S(=O)(=O)N[C@H]2C=C[C@H](CC(=O)NCC3CC3)O[C@H]2CO)c1	4	-11
34	CC(C)C#Cc1cnc2c(c1)C(=O)N([C@H](C)CO)C[C@@H](C)[C@H](CN(C)C(=O)c1cccc(F)c1)O2	6	4
35	COc1ccc(OC)c(C2=NOC(C(=O)Nc3c(C)n(C)n(-c4ccccc4)c3=O)C2)c1 (centres undefined)	0	2
36	COc1ccc(C2=NOC(C(=O)Nc3c(C)n(C)n(-c4ccccc4)c3=O)C2)cc1 (centres undefined)	2	-8
37	COc1ccc(-c2cc(=O)c3c(OC)c(OC)c(OC)c(OC)c3o2)cc1OC	0	3
38	COc1ccc2c(=O)cc(-c3ccncc3)oc2c1OC	1	-24
39	Cc1ccc2oc3c(c(=O)c2c1)C(c1cccc(Cl)c1)N(CCCN1CCOCC1)C3=O (centres undefined)	4	-11
40	C=C(C(=O)O)C(CCCCCC)C(=O)O (centres undefined)	-1	-6

no.	E-sel inducer	DENV2 CPE
31	0	-2
32	nt	33*
33	0	19
34	0	2
35	0	81*
36	0	-8
37	0	-3
38	0	33*
39	1	55*
40	nt	90*

# Remaining list, next part.
no.	smiles	Cneo AK release	Yeast UUG start
41	CCCCCCCC(=O)O	0	-18
42	CC(C)(C)c1[nH]nc2c1C(c1ccco1)C(C#N)=C(N)O2 (centres undefined)	nt	nt
43	Cc1[nH]nc2c1C(c1ccco1)C(C#N)=C(N)O2 (centres undefined)	1	-5
44	O=C(NCC1CCCO1)c1ccc(S(=O)(=O)Nc2ccccc2F)cc1 (centres undefined)	nt	nt
45	CCS(=O)(=O)N1CC2(C1)[C@@H](c1ccccc1)[C@H](CO)N2Cc1ccc(F)cc1	nt	nt
46	OC[C@@H]1[C@@H](c2ccccc2)C2(CN(CC3CC3)C2)N1Cc1ccc(F)cc1	nt	nt
47	O=C(CC1CC1)N1CC2(C1)[C@H](c1ccccc1)[C@@H](CO)N2Cc1ccc(F)cc1	nt	nt
48	CS(=O)(=O)N1CC2(C1)[C@@H](c1ccccc1)[C@@H](CO)N2CCC(F)(F)F	nt	nt

no.	E-sel inducer	DENV2 CPE
41	nt	?
42	nt	-6
43	114*	-6
44	2	101*
45	0	35*
46	0	23*
47	0	3
48	0	20*

# Sorted by number of heavy atoms (descending): some entries from above
no.	smiles	Cneo AK release	Yeast UUG start
47	O=C(CC1CC1)N1CC2(C1)[C@H](c1ccccc1)[C@@H](CO)N2Cc1ccc(F)cc1	nt	nt
44	O=C(NCC1CCCO1)c1ccc(S(=O)(=O)Nc2ccccc2F)cc1 (centres undefined)	nt	nt
48	CS(=O)(=O)N1CC2(C1)[C@@H](c1ccccc1)[C@@H](CO)N2CCC(F)(F)F	nt	nt
41	CCCCCCCC(=O)O	0	-18

no.	E-sel inducer	DENV2 CPE
47	0	3
44	2	101*
48	0	20*
41	nt	?
